The numbers were not newly measured in US20070264672A1, “DEVELOPMENT OF A NOVEL ASSAY FOR MGMT (METHYL GUANINE METHYL TRANSFERASE)” (priority 2006, published 2007), which cites them from elsewhere.

The subject of this data set is human carcinoma HT-29 cell line. The conditions noted are these: combined with BCNU.

Consider `CN(N=O)C(=O)N[C@H]1C(O)O[C@H](CO)[C@@H](O)[C@@H]1O` (mixture of isomers) [streptozotocin], for which the “potentiation of BCNU-induced cytotoxicity over that observed with BCNU alone” value is on record as “three logs”.
